{"source": "patent US8597616B2", "about": "(priority 2007, dated 2013)", "key": {"[1]": {"test": "Blood levels of 2-PAM-CL after intramuscular injection", "conditions": "IM drug delivery, unpublished data"}, "[2]": {"conditions": "intramuscular (IM) injection, normovolemic swine model, previous studies; cited from earlier work"}}, "data": [{"molecule": "C[n+]1ccccc1/C=N/O", "values": [{"measurement": "time to reach therapeutic levels in the systemic circulation", "setting": "[1]", "result": "2 to 3", "unit": "min"}, {"measurement": "time post-injection to peak blood levels", "setting": "[2]", "result": 8, "unit": "min"}, {"measurement": "time to reach therapeutic levels", "setting": "[2]", "result": "about 2 minutes"}]}]}
